Target: HDAC3:SMRT complex (Homo sapiens, UniProt O15379+Q9Y618)
Assay: Circular dichroism thermal-stability assay
Conditions: CD at 222 nm; 14 μM HDAC3:SMRT; 200 μM InsP6 and/or 40 μM SAHA; unliganded 45 °C

Protein sequences, listed by entry. Tags and fused reporters are not part of them. Lines headed by an entry give the natural chain unless they say otherwise; changes in a name come on top. Residues count along the entry.
UniProt O15379: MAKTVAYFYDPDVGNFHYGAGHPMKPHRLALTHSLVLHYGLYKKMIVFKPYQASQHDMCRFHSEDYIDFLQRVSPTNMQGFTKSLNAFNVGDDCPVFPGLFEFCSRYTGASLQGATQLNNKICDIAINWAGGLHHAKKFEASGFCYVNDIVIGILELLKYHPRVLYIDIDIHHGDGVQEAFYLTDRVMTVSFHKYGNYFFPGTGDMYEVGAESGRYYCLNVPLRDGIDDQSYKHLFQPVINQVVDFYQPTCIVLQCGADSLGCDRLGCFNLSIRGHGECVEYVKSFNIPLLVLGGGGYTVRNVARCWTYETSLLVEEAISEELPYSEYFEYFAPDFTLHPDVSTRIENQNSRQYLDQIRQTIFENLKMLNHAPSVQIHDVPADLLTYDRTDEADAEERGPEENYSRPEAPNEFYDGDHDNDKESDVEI
UniProt Q9Y618, 350-480: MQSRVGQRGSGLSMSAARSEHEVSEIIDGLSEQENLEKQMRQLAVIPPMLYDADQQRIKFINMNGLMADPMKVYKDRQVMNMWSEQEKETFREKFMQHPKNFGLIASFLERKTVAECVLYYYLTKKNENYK

O=P(O)(O)O[C@H]1[C@H](OP(=O)(O)O)[C@@H](OP(=O)(O)O)[C@H](OP(=O)(O)O)[C@@H](OP(=O)(O)O)[C@H]1OP(=O)(O)O [InsP6, inositol hexaphosphate]
Tm (melting temperature of the complex): 53 °C

— article PMC4848466, “Insights into the activation mechanism of class I HDAC complexes by inositol phosphates” (Nature Communications, 2016)
